System: human C3A liver cell cultures
Assay: Microarray differential expression of cDNAs in treated human C3A liver cell cultures
Assay type: cell-based
Details: change vs untreated C3A cells
Excerpt: Incyte clones represent template sequences derived from the LIFESEQ GOLD assembled human sequence database (Incyte Genomics). In cases where more than one clone was available for a particular template, the 5′-most clone in the template was used on the microarray. The GENEALBUM GEM series 1-6 microarrays (Incyte Genomics) contain 52,616 array elements which represent 17,472 annotated clusters and 35,144 unannotated clusters. The HUMAN GENOME GEM series 1-3 microarrays (Incyte Genomics) contain 28,626 array elements which represent 10,068 annotated clusters and 18,558 unannotated clusters. For the UNIGEM series microarrays (Incyte Genomics), Incyte clones were mapped to non-redundant Unigene clusters (Unigene database (build 46), NCBI; Shuler (1997) J Mol Med 75:694-698), and the 5′ clone with the strongest BLAST alignment (at least 90% identity and 100 bp overlap) was chosen, verified, and used in the construction of the microarray. The UNIGEM V microarray (Incyte Genomics) contains 7075 array elements which represent 4610 annotated genes and 2,184 unannotated clusters.
To construct microarrays, cDNAs were amplified from bacterial cells using primers complementary to vector sequences flanking the cDNA insert. […] Amplified cDNAs were then purified using […]-400 columns (APB). Purified cDNAs were immobilized on polymer-coated glass slides. […]

SMILES: CC(C)OC(=O)C(C)(C)Oc1ccc(C(=O)c2ccc(Cl)cc2)cc1 [Fenofibrate, fenofibrate]
- expression level of cDNA clone 1998269: 2.31
